By UniProt entry, the sequences of proteins in these tests, tags left out. Where a name states a change or a piece, a line headed by the entry shows the natural chain unless it says otherwise.
UniProt O15379: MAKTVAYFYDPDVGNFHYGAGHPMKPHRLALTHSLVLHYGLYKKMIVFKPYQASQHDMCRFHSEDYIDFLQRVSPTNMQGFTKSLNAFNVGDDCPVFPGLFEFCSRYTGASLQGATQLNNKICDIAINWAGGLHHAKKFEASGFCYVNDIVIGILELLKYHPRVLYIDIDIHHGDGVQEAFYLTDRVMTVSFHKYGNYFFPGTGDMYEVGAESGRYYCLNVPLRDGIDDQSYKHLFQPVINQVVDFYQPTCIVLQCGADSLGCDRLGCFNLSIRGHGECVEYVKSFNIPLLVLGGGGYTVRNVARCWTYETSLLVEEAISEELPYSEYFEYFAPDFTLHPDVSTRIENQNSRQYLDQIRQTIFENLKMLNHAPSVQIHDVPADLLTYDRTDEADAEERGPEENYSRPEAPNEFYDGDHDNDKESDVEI

In ChEMBL document CHEMBL4823270, “A first-in-class anticancer dual HDAC2/FAK inhibitors bearing hydroxamates/benzamides capped by pyridinyl-1,2,4-triazoles” (Eur J Med Chem, 2021):

Target: Histone deacetylase 3 (Homo sapiens, UniProt O15379)

CCCC(CCC)C(=O)O [VALPROIC ACID]
IC50: 135 µM
